Where a name gives a salt, the structure may show the parent alone. Read-outs that look alike come from different tables or passages of the source.

Amino acid sequences for entries named in this document (tags omitted). A change or cut given only in a name is not applied to a line headed by its entry.
UniProt P42338: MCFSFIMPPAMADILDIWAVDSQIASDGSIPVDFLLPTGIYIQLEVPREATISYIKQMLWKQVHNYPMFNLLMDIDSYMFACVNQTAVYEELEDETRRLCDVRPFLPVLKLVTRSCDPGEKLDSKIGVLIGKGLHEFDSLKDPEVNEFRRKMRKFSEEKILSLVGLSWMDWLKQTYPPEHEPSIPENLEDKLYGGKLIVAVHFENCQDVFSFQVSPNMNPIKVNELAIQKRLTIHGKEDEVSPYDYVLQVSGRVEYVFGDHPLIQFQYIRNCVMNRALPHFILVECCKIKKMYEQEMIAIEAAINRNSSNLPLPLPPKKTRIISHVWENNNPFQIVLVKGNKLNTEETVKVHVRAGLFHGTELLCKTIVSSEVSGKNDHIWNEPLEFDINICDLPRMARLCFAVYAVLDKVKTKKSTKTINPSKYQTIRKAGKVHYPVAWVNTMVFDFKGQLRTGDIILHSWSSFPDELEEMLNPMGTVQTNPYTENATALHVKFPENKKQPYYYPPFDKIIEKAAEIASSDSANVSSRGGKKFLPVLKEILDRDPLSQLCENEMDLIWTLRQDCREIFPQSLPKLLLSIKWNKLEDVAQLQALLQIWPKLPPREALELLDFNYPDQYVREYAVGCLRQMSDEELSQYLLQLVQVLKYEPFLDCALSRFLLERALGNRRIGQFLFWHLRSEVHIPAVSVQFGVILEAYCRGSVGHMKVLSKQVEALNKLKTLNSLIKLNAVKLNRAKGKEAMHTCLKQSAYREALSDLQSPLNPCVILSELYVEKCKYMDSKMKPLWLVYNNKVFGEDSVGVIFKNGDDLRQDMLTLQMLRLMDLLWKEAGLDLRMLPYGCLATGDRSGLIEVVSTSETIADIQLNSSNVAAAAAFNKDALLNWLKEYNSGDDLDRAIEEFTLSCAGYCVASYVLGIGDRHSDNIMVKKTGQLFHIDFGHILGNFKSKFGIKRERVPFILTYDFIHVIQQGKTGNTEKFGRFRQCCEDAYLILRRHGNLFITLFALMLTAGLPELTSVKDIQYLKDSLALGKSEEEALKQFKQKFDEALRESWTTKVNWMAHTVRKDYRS
UniProt P42336, whole entry, looked up: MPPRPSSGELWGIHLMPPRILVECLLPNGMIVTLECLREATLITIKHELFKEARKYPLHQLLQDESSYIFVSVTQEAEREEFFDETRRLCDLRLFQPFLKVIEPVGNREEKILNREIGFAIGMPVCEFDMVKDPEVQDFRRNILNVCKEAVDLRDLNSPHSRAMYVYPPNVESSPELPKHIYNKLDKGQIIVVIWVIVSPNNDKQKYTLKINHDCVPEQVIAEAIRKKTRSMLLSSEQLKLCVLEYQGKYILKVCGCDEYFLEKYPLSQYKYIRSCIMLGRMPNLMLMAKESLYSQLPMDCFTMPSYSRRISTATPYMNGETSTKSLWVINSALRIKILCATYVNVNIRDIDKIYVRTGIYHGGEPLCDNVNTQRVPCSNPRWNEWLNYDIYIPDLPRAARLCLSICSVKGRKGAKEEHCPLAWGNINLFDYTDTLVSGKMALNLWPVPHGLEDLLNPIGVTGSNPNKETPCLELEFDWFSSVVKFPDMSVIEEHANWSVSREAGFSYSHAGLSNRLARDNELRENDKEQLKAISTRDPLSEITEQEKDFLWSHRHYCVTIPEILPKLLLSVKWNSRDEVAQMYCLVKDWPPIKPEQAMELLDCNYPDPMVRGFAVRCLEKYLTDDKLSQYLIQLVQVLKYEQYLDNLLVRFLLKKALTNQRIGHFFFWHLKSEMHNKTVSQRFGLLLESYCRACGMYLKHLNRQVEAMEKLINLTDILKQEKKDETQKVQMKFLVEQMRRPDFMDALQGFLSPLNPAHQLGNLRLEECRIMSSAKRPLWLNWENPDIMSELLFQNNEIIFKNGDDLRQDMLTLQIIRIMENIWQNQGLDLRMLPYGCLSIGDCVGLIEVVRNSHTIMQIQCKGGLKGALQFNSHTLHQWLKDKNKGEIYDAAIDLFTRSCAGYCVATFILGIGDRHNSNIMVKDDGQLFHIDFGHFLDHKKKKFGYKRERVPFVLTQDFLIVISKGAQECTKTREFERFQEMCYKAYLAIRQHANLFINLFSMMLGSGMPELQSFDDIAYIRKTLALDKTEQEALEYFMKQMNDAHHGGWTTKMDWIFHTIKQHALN
UniProt Q8NEB9, whole entry: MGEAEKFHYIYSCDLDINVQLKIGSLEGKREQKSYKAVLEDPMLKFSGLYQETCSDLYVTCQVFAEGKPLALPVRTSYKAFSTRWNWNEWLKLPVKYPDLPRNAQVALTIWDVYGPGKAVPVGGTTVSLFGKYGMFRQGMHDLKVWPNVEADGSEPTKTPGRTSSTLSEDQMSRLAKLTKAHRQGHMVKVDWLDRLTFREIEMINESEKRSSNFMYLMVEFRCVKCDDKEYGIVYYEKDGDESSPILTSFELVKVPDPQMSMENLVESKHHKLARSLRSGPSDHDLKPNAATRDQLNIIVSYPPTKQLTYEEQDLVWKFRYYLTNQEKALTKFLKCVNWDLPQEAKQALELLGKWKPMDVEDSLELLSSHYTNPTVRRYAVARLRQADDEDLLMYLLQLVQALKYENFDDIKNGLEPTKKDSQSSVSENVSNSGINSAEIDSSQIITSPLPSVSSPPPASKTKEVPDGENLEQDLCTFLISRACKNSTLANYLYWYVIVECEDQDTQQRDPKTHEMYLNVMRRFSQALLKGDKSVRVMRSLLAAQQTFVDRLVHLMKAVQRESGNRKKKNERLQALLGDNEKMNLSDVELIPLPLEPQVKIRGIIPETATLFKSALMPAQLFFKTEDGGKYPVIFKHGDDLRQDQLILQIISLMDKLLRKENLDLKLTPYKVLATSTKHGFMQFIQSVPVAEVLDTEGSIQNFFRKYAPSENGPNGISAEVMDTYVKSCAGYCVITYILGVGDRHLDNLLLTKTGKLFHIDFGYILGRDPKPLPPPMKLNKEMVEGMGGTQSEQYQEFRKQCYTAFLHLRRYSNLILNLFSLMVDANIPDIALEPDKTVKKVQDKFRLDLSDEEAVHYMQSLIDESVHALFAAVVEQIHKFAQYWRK
UniProt Q9UBF8: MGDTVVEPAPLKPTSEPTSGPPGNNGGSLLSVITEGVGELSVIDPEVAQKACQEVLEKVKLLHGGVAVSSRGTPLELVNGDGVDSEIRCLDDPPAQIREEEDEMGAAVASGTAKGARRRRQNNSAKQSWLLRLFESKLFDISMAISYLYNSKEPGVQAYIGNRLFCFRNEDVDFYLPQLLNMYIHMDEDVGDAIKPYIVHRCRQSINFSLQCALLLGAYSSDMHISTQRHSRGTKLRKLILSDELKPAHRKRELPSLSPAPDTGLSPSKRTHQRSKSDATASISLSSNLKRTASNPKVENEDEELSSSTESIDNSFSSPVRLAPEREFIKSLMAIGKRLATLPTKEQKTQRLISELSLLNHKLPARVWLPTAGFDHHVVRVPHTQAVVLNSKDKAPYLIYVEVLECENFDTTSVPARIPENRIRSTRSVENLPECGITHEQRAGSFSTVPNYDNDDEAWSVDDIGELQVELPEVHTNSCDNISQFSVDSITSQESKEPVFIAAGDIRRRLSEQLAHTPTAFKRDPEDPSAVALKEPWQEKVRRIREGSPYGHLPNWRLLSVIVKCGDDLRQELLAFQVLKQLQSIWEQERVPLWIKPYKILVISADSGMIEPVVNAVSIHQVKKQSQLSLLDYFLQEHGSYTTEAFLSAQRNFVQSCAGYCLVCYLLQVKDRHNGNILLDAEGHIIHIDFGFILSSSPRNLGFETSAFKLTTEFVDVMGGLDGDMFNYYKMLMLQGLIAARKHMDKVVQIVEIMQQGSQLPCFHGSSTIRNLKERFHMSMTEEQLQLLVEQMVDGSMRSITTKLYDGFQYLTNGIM
UniProt O00329: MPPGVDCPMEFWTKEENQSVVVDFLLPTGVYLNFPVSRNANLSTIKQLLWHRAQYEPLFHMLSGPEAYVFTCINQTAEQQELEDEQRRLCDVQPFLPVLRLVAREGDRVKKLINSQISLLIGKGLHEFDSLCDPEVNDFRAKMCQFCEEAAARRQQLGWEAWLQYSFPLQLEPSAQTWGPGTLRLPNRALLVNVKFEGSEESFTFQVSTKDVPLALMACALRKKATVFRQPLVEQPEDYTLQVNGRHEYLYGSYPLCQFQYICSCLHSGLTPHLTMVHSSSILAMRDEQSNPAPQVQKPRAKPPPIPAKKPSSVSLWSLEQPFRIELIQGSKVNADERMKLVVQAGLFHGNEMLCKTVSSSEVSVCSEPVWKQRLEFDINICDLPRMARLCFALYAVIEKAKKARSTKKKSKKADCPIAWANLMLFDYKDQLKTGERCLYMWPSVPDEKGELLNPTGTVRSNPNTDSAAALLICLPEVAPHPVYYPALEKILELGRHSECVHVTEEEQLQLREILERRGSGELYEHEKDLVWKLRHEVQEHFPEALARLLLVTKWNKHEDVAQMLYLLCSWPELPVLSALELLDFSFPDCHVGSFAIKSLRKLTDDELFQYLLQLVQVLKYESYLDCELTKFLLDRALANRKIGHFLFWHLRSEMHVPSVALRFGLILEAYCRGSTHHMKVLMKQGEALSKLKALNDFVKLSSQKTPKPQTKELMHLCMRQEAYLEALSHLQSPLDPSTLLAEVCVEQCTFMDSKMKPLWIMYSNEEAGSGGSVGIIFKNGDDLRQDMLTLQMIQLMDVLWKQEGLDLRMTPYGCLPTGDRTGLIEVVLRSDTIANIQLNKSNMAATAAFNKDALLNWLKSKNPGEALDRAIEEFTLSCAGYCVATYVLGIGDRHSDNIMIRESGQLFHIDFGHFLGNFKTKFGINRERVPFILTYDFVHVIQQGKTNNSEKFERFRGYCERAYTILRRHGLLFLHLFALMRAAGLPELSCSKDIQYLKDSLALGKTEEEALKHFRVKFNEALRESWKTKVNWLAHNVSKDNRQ
UniProt P48736: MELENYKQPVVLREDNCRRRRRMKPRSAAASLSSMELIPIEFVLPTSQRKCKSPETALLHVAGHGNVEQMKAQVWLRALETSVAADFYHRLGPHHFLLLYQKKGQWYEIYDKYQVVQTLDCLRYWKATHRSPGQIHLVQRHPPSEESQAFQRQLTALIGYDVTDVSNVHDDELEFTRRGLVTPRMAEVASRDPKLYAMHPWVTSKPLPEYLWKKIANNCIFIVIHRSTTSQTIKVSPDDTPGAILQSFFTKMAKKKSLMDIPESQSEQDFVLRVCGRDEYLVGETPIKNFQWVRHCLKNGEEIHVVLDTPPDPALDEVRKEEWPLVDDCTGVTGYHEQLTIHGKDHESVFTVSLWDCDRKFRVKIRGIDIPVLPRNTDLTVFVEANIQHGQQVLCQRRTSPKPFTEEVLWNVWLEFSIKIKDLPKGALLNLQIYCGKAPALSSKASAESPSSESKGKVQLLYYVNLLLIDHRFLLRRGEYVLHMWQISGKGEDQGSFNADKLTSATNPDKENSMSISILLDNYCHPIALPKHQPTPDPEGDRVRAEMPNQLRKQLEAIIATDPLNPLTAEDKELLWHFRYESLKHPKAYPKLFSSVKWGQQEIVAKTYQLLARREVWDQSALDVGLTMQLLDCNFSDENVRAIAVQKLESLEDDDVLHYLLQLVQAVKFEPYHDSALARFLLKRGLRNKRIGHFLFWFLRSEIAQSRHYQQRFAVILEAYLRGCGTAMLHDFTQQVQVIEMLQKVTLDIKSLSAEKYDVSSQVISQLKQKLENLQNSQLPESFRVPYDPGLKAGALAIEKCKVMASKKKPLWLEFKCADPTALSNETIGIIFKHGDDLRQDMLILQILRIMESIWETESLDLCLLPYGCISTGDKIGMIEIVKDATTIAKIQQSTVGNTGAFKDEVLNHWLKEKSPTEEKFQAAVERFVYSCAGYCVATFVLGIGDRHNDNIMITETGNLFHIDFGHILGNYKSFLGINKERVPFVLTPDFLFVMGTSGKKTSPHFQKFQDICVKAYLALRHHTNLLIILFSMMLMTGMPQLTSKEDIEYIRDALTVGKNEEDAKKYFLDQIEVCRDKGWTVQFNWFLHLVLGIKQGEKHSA

Assay [1] deals with T1, PI 3-kinase beta (Homo sapiens (Human), UniProt P42338). As to the kind of experiment: biochemical. To be noted: Assay B PI3Kβ IC50 (μM).
Assay [2] concerns the target T2, PI 3-kinase alpha (Homo sapiens (Human), UniProt P42336). Nature of the assay: biochemical. To be noted: Assay A PI3Kα IC50 (μM).
Assay [3] addresses T3, PI 3-kinase alpha (Rat-1 pBABEpuro Myr-HA-hp110 alpha cells) (Homo sapiens (Human), UniProt P42336). As to the kind of experiment: cell-based.
Another assay has as its target Vps34 (Homo sapiens (Human), UniProt Q8NEB9). As to the kind of experiment: biochemical.
Assay [4] deals with T4, PI 3-kinase beta (Rat-1 pBABEpuro Myr-HA-hp110 beta cells) (Homo sapiens (Human), UniProt P42338). As to the kind of experiment: cell-based.
In assay [5] the target is T5, PI 4-kinase beta (Homo sapiens (Human), UniProt Q9UBF8). Nature of the assay: biochemical.
Assay [6] deals with T1, PI 3-kinase beta.
For assay [7], the target named is T5, PI 4-kinase beta. The note with it: read-out: Assay D PI4Kβ IC50.
The target of assay [8] is T2, PI 3-kinase alpha.
The target in assay [9] is T3, PI 3-kinase alpha (Rat-1 pBABEpuro Myr-HA-hp110 alpha cells). Nature of the assay: cell-based. This is another data set of the same source.
For assay [10], the target named is T4, PI 3-kinase beta (Rat-1 pBABEpuro Myr-HA-hp110 beta cells). Nature of the assay: cell-based. The source holds these as a separate data set.
The target of another assay is mTOR (Homo sapiens (Human), UniProt P42345). Nature of the assay: biochemical. The note with it: Assay G mTOR IC50 (μM).
The target of another assay is PI 3-kinase delta (Homo sapiens (Human), UniProt O00329).
For a further assay, the target named is PI 3-kinase gamma (Homo sapiens (Human), UniProt P48736). To be noted: read-out: Assay E PI3Kγ.
For assay [11], the target named is PI 3-kinase gamma (U937 cells, MIP1α-stimulated AKT phosphorylation) (Homo sapiens (Human), UniProt P48736). The note with it: read-out: Assay K1 PI3Kγ.

Take `Cc1cc(-c2cc(-c3cc(S(=O)(=O)NCC4CCCOC4)ccc3C)cnc2N)on1` (single isomer, unassigned) [Example 23a, (R or S)-3-(6-Amino-5-(3-methylisoxazol-5-yl)pyridin-3-yl)-4-methyl-N-((tetrahydro-2H-pyran-3-yl)methyl)benzenesulfonamide]: the IC50 against PI 3-kinase beta [1] is 2.55 µM; against PI 3-kinase alpha [2], 0.26 µM; in [3] (Assay H PI3Kα IC50), 2590 nM; against Vps34 it was above 10 µM; in assay [4] (Assay I PI3Kβ IC50), above 3 µM; at PI 4-kinase beta [5] (Assay D PI4Kβ IC50 (μM)), 2.1 µM.
For `Cc1noc(-c2cc(-c3cc(S(=O)(=O)NC4CC(O)C4)ccc3C)cnc2N)n1` (mixture of isomers) [Example 5.5, Diastereomers of 3-(6-Amino-5-(3-methyl-1,2,4-oxadiazol-5-yl)pyridin-3-yl)-N-(3-hydroxycyclobutyl)-4-methylbenzene sulfonamide hydrochloride], the IC50 is 1000 nM on PI 3-kinase beta [6] (read-out: Assay B PI3Kβ IC50); 4430 nM in assay [3] (Assay H PI3Kα IC50); above 10 µM in assay [4] (Assay I PI3Kβ IC50); 4 µM at PI 4-kinase beta [7]; 320 nM on PI 3-kinase alpha [8] (read-out: Assay A PI3Kα IC50).
`Cc1cc(-c2cc(-c3cc(S(=O)(=O)N[C@H]4CC[C@H](O)C4)ccc3C)cnc2N)on1` (racemic) [Example 96, trans-3-(6-amino-5-(3-methylisoxazol-5-yl)pyridin-3-yl)-N-(3-hydroxycyclopentyl)-4-methylbenzenesulfonamide]: the IC50 is 5.84 µM in [9], 1.1 µM against PI 3-kinase alpha [2], above 10 µM against Vps34 and above 10 µM in [10].
Turning to `Cc1noc(-c2cc(-c3cc(S(=O)(=O)NC4CC5(CC(O)C5)C4)ccc3C)cnc2N)n1` (racemic) [Example 8, 3-[6-Amino-5-(3-methyl-[1,2,4]oxadiazol-5-yl)-pyridin-3-yl]-N-(6-hydroxy-spiro[3.3]hept-2-yl)-4-methyl-benzenesulfonamide (racemate)], the IC50 was 0.43 µM against PI 3-kinase beta [1]; 0.06 µM at PI 3-kinase alpha [2]; 650 nM in assay [3] (Assay H PI3Kα IC50); above 10 µM against Vps34; 4.68 µM in assay [4] (Assay I PI3Kβ IC50); above 10 µM against mTOR.
For `Cc1cc(-c2cc(-c3cc(S(=O)(=O)NCCO)ccc3C)cnc2N)on1` [Example 73, 3-(6-Amino-5-(3-methylisoxazol-5-yl)pyridin-3-yl)-N-(2-hydroxyethyl)-4-methylbenzenesulfonamide], the IC50 at PI 3-kinase beta [6] (read-out: Assay B PI3Kβ IC50) was 1000 nM; on PI 3-kinase delta (read-out: Assay F PI3Kδ IC50), 520 nM; in assay [3] (Assay H PI3Kα IC50) it was 2530 nM; in assay [4] (Assay I PI3Kβ IC50) it was above 10 µM; on PI 3-kinase alpha [8] (read-out: Assay A PI3Kα IC50) it was 240 nM.
Consider `CC(C)(C)c1ccc(C(=O)c2cc(-c3cccc(S(=O)(=O)NC4CC4)c3)cnc2N)cc1` [(iii), reference compound], for which the IC50 is 1200 nM at PI 3-kinase gamma, 0.7 µM against Vps34, 20 nM at PI 3-kinase alpha [8] (read-out: Assay A PI3Kα) and 0.3 µM at PI 4-kinase beta [5] (Assay D PI4Kβ).
For `COCCNS(=O)(=O)c1cc(-c2cnc(N)c(C(=O)c3cccnc3)n2)ccc1Cl` [(vi), reference compound], the IC50 at PI 3-kinase beta [6] (read-out: Assay B PI3Kβ) was found to be 190 nM; at PI 3-kinase delta (read-out: Assay F PI3Kδ), 450 nM; in assay [3] (Assay H PI3Kα) it was 170 nM; on PI 3-kinase gamma, 34 nM; on Vps34 it was 2.38 µM; in [4] (Assay I PI3Kβ) it was 0.26 µM. In addition, the figures for the IC50 (on PI 3-kinase alpha [8] (read-out: Assay A PI3Kα); in [11]; on PI 4-kinase beta [5] (Assay D PI4Kβ)) were 90 nM, 182 nM and 0.61 µM, respectively.
Turning to `Nc1ncc(-c2ccc(Cl)c(S(=O)(=O)N[C@H]3CC[C@H](O)CC3)c2)nc1C(=O)c1cccnc1` [(v), reference compound], the IC50 at PI 3-kinase beta [6] (read-out: Assay B PI3Kβ) turned out to be 140 nM; on PI 3-kinase delta (read-out: Assay F PI3Kδ), 1970 nM; in assay [3] (Assay H PI3Kα), 180 nM; at PI 3-kinase gamma, 247 nM; on Vps34, 0.91 µM; in assay [4] (Assay I PI3Kβ), 0.23 µM. The IC50 at PI 3-kinase alpha [8] (read-out: Assay A PI3Kα) came out at 70 nM; at PI 4-kinase beta [5] (Assay D PI4Kβ), 0.16 µM.
For the compound `CCN1CCC[C@H]1CNS(=O)(=O)c1ccc(C)c(-c2cnc(N)c(-c3cc(C)no3)c2)c1` [Example 37.33, (S)-3-(6-Amino-5-(3-methylisoxazol-5-yl)pyridin-3-yl)-N-((1-ethylpyrrolidin-2-yl)methyl)-4-methylbenzenesulfonamide], the IC50 on PI 3-kinase beta [6] (read-out: Assay B PI3Kβ IC50) was 6500 nM; in assay [4] (Assay I PI3Kβ IC50), above 10 µM; at PI 4-kinase beta [7] it was above 10 µM; on PI 3-kinase alpha [8] (read-out: Assay A PI3Kα IC50), 2500 nM.
On to `Cc1ncc(-c2cc(-c3cc(S(=O)(=O)NCC(C)O)ccc3C)cnc2N)o1` (racemic) [Example 104.15, rac-3-(6-amino-5-(2-methyloxazol-5-yl)pyridin-3-yl)-N-(2-hydroxypropyl)-4-methylbenzenesulfon-amide], for which the IC50 is 3.58 µM in [9]; above 10 µM on PI 3-kinase beta [1]; 0.19 µM against PI 3-kinase alpha [2]; 1.6 µM at Vps34; 5.2 µM in assay [10]; 1.9 µM at PI 4-kinase beta [5] (Assay D PI4Kβ IC50 (μM)).
In the case of `Cc1ccc(S(=O)(=O)N2CCOCC2)cc1-c1cnc(N)c(C(=O)c2cccnc2)n1` [(ix), reference compound], the IC50 on PI 3-kinase beta [6] (read-out: Assay B PI3Kβ) was 630 nM; on PI 3-kinase delta (read-out: Assay F PI3Kδ), 80 nM; in assay [3] (Assay H PI3Kα), 850 nM; on PI 3-kinase gamma it was 7 nM; against Vps34 it was 6.31 µM; in assay [4] (Assay I PI3Kβ), 2.29 µM. Besides, the IC50 stood at 780 nM at PI 3-kinase alpha [8] (read-out: Assay A PI3Kα), 20 nM in assay [11] and 4.01 µM against PI 4-kinase beta [5] (Assay D PI4Kβ).
As to `Cc1noc(-c2cc(-c3cc(S(=O)(=O)NCC(C)O)ccc3C)cnc2N)n1` (racemic) [Example 108, Rac-3-(6-amino-5-(3-methyl-1,2,4-oxadiazol-5-yl)pyridin-3-yl)-N-(2-hydroxypropyl)-4-methylbenzenesulfonamide], the IC50 on PI 3-kinase beta [1] is 7.3 µM; against PI 3-kinase alpha [2] it was 0.64 µM; in assay [3] (Assay H PI3Kα IC50), above 10000 nM; on Vps34, above 10 µM; in [4] (Assay I PI3Kβ IC50), 3.31 µM; at mTOR, above 10 µM. Further, the IC50 at PI 4-kinase beta [5] (Assay D PI4Kβ IC50 (μM)) worked out at 5.9 µM.
In the case of `Cc1cc(-c2cc(-c3cc(S(=O)(=O)N[C@H]4COC[C@@H]4O)ccc3C)cnc2N)on1` (racemic) [Example 101.1, 3-(6-amino-5-(3-methylisoxazol-5-yl)pyridin-3-yl)-N-(trans-4-hydroxytetrahydrofuran-3-yl)-4-methylbenzenesulfonamide:trifluoroacetic acid 1:1], the IC50 in [9] is above 10 µM; against PI 3-kinase beta [1] it was 4.7 µM; against PI 3-kinase alpha [2], 0.52 µM; on Vps34, above 10 µM; in [10], above 10 µM; on mTOR, above 10 µM.
Consider `Cc1cc(-c2cc(-c3cc(S(=O)(=O)N[C@H]4CCC[C@@H]4O)ccc3C)cnc2N)on1` (racemic) [Example 101.2, 3-(6-amino-5-(3-methylisoxazol-5-yl)pyridin-3-yl)-N-((trans)-2-hydroxycyclopentyl)-4-methylbenzenesulfonamide], for which the IC50 in assay [9] is above 10 µM; against PI 3-kinase alpha [2], 0.44 µM; against Vps34, above 10 µM; in assay [10] it was above 10 µM; on mTOR, above 10 µM.

The record behind these values is patent publication US10112926B2 (priority 2014, dated 2018).
